# Values of other authors in paper PMC9488713 (ACS chemical biology, 2022).
# Conditions: oral semaglutide formulated with permeation enhancer SNAC; cited from earlier work
substance,measurement,value
semaglutide,bioavailability after oral administration,0.8%
